# Results reported in patent US20240360179A1, “STAPLED PEPTIDES AND METHODS THEREOF” (FOG PHARMACEUTICALS, INC., priority 2021, published 2024).
# Protein sequences, listed by entry. Tags and fused reporters are not part of them.
# UniProt P35222, whole entry: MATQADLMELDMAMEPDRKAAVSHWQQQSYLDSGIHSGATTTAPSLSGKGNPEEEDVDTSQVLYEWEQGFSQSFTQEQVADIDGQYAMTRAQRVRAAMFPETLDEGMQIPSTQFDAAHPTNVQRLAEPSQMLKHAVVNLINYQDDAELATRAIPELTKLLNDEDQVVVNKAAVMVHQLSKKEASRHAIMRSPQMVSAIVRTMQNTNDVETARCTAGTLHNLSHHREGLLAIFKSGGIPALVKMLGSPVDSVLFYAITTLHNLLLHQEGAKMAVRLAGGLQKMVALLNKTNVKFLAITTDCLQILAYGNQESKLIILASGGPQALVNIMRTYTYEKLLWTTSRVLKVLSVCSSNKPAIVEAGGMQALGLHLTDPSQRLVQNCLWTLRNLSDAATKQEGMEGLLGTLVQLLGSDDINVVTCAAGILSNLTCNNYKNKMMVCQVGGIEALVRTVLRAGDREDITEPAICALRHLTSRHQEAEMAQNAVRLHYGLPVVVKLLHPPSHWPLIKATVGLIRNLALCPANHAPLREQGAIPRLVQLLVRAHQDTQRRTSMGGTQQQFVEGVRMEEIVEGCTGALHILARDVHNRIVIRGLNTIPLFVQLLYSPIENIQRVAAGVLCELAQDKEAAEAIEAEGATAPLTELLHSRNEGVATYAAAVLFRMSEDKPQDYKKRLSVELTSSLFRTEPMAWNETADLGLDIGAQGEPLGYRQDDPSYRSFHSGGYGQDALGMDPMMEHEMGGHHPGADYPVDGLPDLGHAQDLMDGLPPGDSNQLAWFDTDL
# Target: T1, full-length B-Catenin (Uniprot ID P35222) (Homo sapiens, UniProt P35222)
# T1 construct: 10 nM full-length B-Catenin (Uniprot ID P35222)
# Type: binding
# Settings: competition fluorescence polarization; read-out: beta-Catenin FP IC50
row,Substance,IC50
1,Ac-PL3-Asp-Npg-B5-Asp-3COOHF-Aib-Ala-Phe-Lys*3-PyrS2-2FF-BztA-GlnR*3-NH2 [I-1541],< 50 nM
2,Ac-PL3-Asp-Npg-B5-Asp-3COOHF-Aib-Ala-Phe-Lys*3-PyrS2-hCypA-34ClF-GlnR*3-Ala-NH2 [I-1321],< 50 nM
3,Ac-PL3-Asp-Npg-B5-Asp-3COOHF-Aib-Ala-Phe-Lys*3-PyrS2-3Thi-BztA-GlnR*3-Aib-Aib-NH2 [I-410],< 50 nM
4,Ac-PL3-Asp-Ile-B5-Asp-3COOHF-Phe-Ala-Phe-TriAzLys*3-PyrS2-3Thi-34ClF-sAla*3-NH2 [I-1090],< 50 nM
5,Ac-PL3-aThr-DipA-B5-Asp-3COOHF-CyLeu-Ala-Phe-Lys*3-PyrS2-3Thi-34ClF-GlnR*3-NH2 [I-1631],50 to 200 nM
6,Ac-PL3-Asp-Npg-B5-Asp-3COOHF-Aib-Ala-Phe-[Mpyr]Cys-PyrS2-3Thi-BztA-Cys-Ser-NH2 [I-1520],< 50 nM
7,Ac-PL3-Asp-Ile-B5-Asp-3COOHF-Aib-Ala-Phe-Lys*3-PyrS2-hhLeu-34ClF-GlnR*3-Ala-NH2 [I-1314],< 50 nM
8,Ac-PL3-Asp-Npg-B5-Asp-[RaiPrSuc]Dap-Aib-Ala-Phe-Lys*3-PyrS2-3Thi-BztA-GlnR*3-Ala-NH2 [I-1436],< 50 nM
9,Ac-PL3-Asp-Npg-B5-Asp-3COOHF-Aib-Ala-Phe-Lys*3-PyrS2-HepG-34ClF-GlnR*3-Ala-NH2 [I-943],50 to 200 nM
10,Ac-PL3-Asp-Ile-B5-Asp-3COOHF-GlnMePDA*3-Ala-Phe-Val-PyrS2-Phe-34ClF-GlnR*3-NH2 [I-1801],> 1000 nM
11,Ac-PL3-Asp-Npg-B5-Asp-3COOHF-Aib-Ala-Phe-[m50Meb]Cys-PyrS2-3Thi-BztA-Cys-Ala-NH2 [I-1453],< 50 nM
12,Ac-PL3-Asp-Npg-B5-Asp-3COOHF-Aib-Ala-Phe-[m5Pyr]Cys-PyrS2-3Thi-BztA-Pen-Ala-NH2 [I-1455],< 50 nM
13,Ac-PL3-Asp-Leu-B5-Asp-3COOHF-GlnR*3-Ala-Phe-Leu-PyrS2-Phe-34ClF-Gln5DA*3-NH2 [I-1830],< 50 nM
14,Ac-PL3-Asp-Npg-B5-Asp-3COOHF-Aib-Ala-2FF-Lys*3-PyrS2-3Thi-BztA-GlnR*3-Ala-NH2 [I-581],< 50 nM
15,Ac-PL3-Asp-Npg-B5-Asp-3COOHF-Aib-Ala-Phe-dDab*3-PyrS2-3Thi-BztA-GlnR*3-Leu-Ser-NH2 [I-791],< 50 nM
16,Ac-PL3-Asp-Leu-B5-Asp-3COOHF-GlnR*3-Ala-Phe-Val-PyrS2-Phe-34ClF-Gln6DA*3-NH2 [I-1835],< 50 nM
17,Ac-PL3-Asp-DipA-B5-Asp-3COOHF-Thr-Ala-Phe-Lys*3-PyrS2-3Thi-34ClF-GlnR*3-NH2 [I-1635],> 1000 nM
18,Ac-PL3-Asp-Npg-B5-Asp-3COOHF-Aib-Ala-Phe-Lys*3-PyrS2-3Thi-BztA-GlnR*3-Ala-Ala-GlnR**3-Ala-Ala-Ala-Lys**3-NH2 [I-1159],< 50 nM
19,Ac-PL3-Asp-Npg-B5-Asp-3COOHF-Aib-Ala-Phe-[IsoE]hCysOx-PyrS2-3Thi-BztA-aMeC-Ala-NH2 [I-1460],< 50 nM
20,Ac-PL3-AspSH-Npg-B5-AspSH-3COOHF-Aib-Ala-Phe-Lys*3-PyrS2-3Thi-BztA-GlnR*3-Ala-NH2 [I-1303],> 1000 nM

row,Substance,IC50
1,Ac-PL3-Asp-Npg-B5-Asp-3COOHF-Aib-Ala-RbMeXylDA-Lys*3-PyrS2-3Thi-BztA-GlnR*3-Ala-NH2 [I-603],> 1000 nM
2,Ac-PL3-Asp-Chg-B5-Asp-3COOHF-Aib-Ala-Phe-Lys*3-PyrS2-2ClF-BztA-GlnR*3-NH2 [I-1530],< 50 nM
3,Ac-S5-Ala-Asp-Ile-B5-Asp-Glu-Aib-Ala-Phe-Lys*3-PyrS2-Phe-34ClF-GlnR*3-NH2 [I-1338],200 to 750 nM
4,Ac-Pro-Ala-S5-Ser-Asp-Npg-B5-Asp-3COOHF-Aib-Ala-Phe-Lys*3-PyrS2-3Thi-BztA-GlnR*3-Ala [I-1289],50 to 200 nM
5,124TriAc-PL3-Asn-DipA-B5-Asp-3COOHF-CyLeu-Ala-Phe-Lys*3-PyrS2-3Thi-34ClF-GlnR*3-NH2 [I-1731],< 50 nM
6,Ac-PL3-Asp-Npg-B5-Asp-3COOHF-Ala-Ala-Phe-Lys*3-PyrS2-2F3MeF-34ClF-GlnR*3-Leu-Ser-NH2 [I-829],50 to 200 nM
7,Ac-PL3-Asp-Npg-B5-Asp-3COOHF-Aib-Ala-Phe-[Red]hCys-PyrS2-3Thi-BztA-aMeC-Ala-NH2 [I-1428],200 to 750 nM
8,Ac-PL3-Asp-Npg-B5-Asp-3COOHF-Aib-Ala-Phe-Lys*3-PyrS2-hhSer-BztA-GlnR*3-Ala-NH2 [I-1306],< 50 nM
9,Ac-PL3-Asp-Npg-B5-Asp-3COOHF-Aib-Ala-Phe-Lys*3-PyrS2-3Thi-BztA-GlnR*3-Thr-Ser-Leu-Pro-NH2 [I-1474],< 50 nM
10,Ac-PL3-Asp-DipA-B5-Asp-3COOHF-Ala-Ala-Phe-Lys*3-PyrS2-3Thi-34ClF-GlnR*3-Ala-Ala-[AdamantC-PEG8]--Lys-NH2 [I-1918],< 50 nM
11,Ac-S6-Glu-Asp-DipA-B5-Asp-3COOHF-Aib-Ala-Phe-Lys*3-PyrS1-Phe-BztA-GlnR*3-NH2 [I-1928],< 50 nM
12,Ac-PL3-Asp-Npg-B5-Asp-3COOHF-Aib-Ala-Phe-Lys*3-PyrS2-[PhOPr]2NH2F-BztA-GlnR*3-Ala-NH2 [I-1745],50 to 200 nM
13,Ac-PL3-Asp-Npg-B5-Asp-3COOHF-Aib-Ala-Phe-Lys*3-PyrS2-3Thi-BztA-GlnR*3-Ala-Ala-[mPEG4]Lys-NH2 [I-1402],50 to 200 nM
14,2PyzCO-PL3-Asp-DipA-B5-Asp-3COOHF-CyLeu-Ala-Phe-Lys*3-PyrS2-3Thi-34ClF-GlnR*3-NH2 [I-1722],< 50 nM
15,Ac-PL3-Asp-Ile-B5-Asp-3COOHF-CyLeu-Ala-Phe-Lys*3-PyrS2-3Thi-34ClF-GlnR*3-Val-Glu-Leu-NH2 [I-1267],< 50 nM
16,Ac-S6-Glu-Asp-DipA-B5-Asp-3COOHF-Aib-Ala-Phe-Lys*3-PyrS1-3Thi-BztA-GlnR*3-NH2 [I-1929],< 50 nM
17,Ac-PL3-Asp-Leu-B5-Asp-3COOHF-GlnR*3-Ala-Phe-Val-PyrS2-Phe-34ClF-Gln5DA*3-NH2 [I-1832],< 50 nM
18,Ac-PL3-Asp-DipA-B5-Asp-3COOHF-Leu-Ala-Phe-Lys*3-PyrS2-Phe-BztA-GlnR*3-NH2 [I-1850],< 50 nM
19,Ac-S5-Ala-Hse-Npg-B5-Asp-3COOHF-Aib-Ala-Phe-Lys*3-PyrS2-3Thi-BztA-GlnR*3-Ala-NH2 [I-1197],50 to 200 nM
20,Ac-S5-Ala-Glu-Npg-B5-Glu-3COOHF-Aib-Ala-Phe-Lys*3-PyrS2-3Thi-BztA-GlnR*3-Ala-NH2 [I-1207],> 1000 nM

row,Substance,IC50
1,Ac-PL3-Asp-Leu-B5-Asp-3COOHF-GlnR*3-Ala-Phe-Leu-PyrS2-Phe-34ClF-Gln3ACPip*3-NH2 [I-1901],50 to 200 nM
2,1PydoneAc-PL3-Asp-Npg-B5-Asp-3COOHF-Aib-Ala-Phe-Lys*3-PyrS2-3Thi-BztA-GlnR*3-Ala-NH2 [I-1074],< 50 nM
3,Ac-PL3-Asp-Npg-B5-Asp-3COOHF-Aib-nLeu-Phe-Lys*3-PyrS2-3Thi-BztA-GlnR*3-Ala-NH2 [I-528],< 50 nM
4,Ac-PL3-Asp-Leu-B5-Asp-3COOHF-GlnC4CyMe*3-Ala-Phe-Leu-PyrS2-Phe-34ClF-GlnR*3-NH2 [I-1896],< 50 nM
5,5hexenyl-MePro-Asp-S3-R5-Asp-3COOHF-Aib-Ala-Phe-Lys*3-PyrS2-3Thi-BztA-GlnR*3-Ala-NH2 [I-1022],50 to 200 nM
6,Ac-PL3-Hse-Npg-B5-Asp-TfeGA-Ala-Ala-Phe-Lys*3-PyrS2-2F3MeF-BztA-GlnR*3-Ala-NH2 [I-116],> 1000 nM
7,Ac-PL3-Asp-Npg-B5-Asp-3COOHF-Aib-Ala-Phe-[13Ac]hCys-PyrS2-3Thi-BztA-Cys-Ala-NH2 [I-1283],< 50 nM
8,Ac-PL3-Asp-DipA-B5-Asp-3COOHF-Val-Ala-Phe-Lys*3-PyrS2-Phe-BztA-GlnR*3-dPro-NH2 [I-1855],< 50 nM
9,Ac-PL3-Asp-Npg-B5-Asp-3COOHF-Aib-Ala-Phe-Lys*3-PyrS2-hnLeu-34ClF-GlnR*3-Ala-NH2 [I-761],< 50 nM
10,Ac-PL3-Asp-Cha-B5-Asp-3COOHF-CyLeu-Ala-Phe-Lys*3-PyrS2-2ClF-34ClF-GlnR*3-NH2 [I-1504],< 50 nM
11,Ac-PL3-Asp-Npg-B5-Asp-3COOHF-Aib-Ala-Phe-Lys*3-PyrS2-[MePipAc]2NH2F-BztA-GlnR*3-Ala-NH2 [I-1666],< 50 nM
12,Ac-PL3-Asp-Npg-B5-Asp-TfeGA-Aib-Ala-Phe-Lys*3-PyrS2-3Thi-BztA-GlnR*3-NH2 [I-875],< 50 nM
13,Ac-S6-Leu-Asp-Val-B5-Asp-3COOHF-Leu-Ala-Phe-Lys*3-PyrS1-3Thi-BztA-GlnR*3-NH2 [I-1937],< 50 nM
14,Ac-PL3-Asp-Npg-B5-Asp-3COOHF-Aib-Ala-Phe-TriAzLys*3-PyrSc73Me2-3Thi-BztA-sAla*3-Ala-NH2 [I-1124],< 50 nM
15,Ac-PL3-Asp-Ile-B5-Asp-3COOHF-CyLeu-Ala-Phe-Lys*3-PyrS2-Phe-34ClF-GlnR*3-Val-Glu-Ala-NH2 [I-1258],< 50 nM
16,Ac-PL3-Asp-Chg-B5-Asp-3COOHF-Ala-Ala-Phe-Lys*3-PyrS2-3Thi-BztA-GlnR*3-Ala-NH2 [I-976],< 50 nM
17,Ac-PL3-Asp-Ile-B5-Asp-3COOHF-Aib-Ala-Phe-1MeK*3-PyrS2-Phe-34ClF-dGlnR*3-NHMe [I-1761],< 50 nM
18,Ac-S5-Glu-Asp-Npg-B5-Glu-3COOHF-Aib-Ala-Phe-Lys*3-PyrS2-3Thi-BztA-GlnR*3-Ala-NH2 [I-1227],50 to 200 nM

# Same assay, conditions: read-out: beta-catenin TCF4 competition FP assay IC50
row,Substance,IC50
1,Ac-PL3-Asp-Npg-B5-Asp-3COOHF-Aib-Ala-Phe-[m50Meb]Cys-PyrS2-3Thi-BztA-Cys-Ala-NH2 [I-1453],35 nM
